## Measured properties of organic chemicals

Melting points are in °C.
Boiling points are in °C, nominally at 760 mmHg.
logP is the log10 of the octanol-water partition coefficient; higher is more lipophilic.
Solubility in water is on a log10 molar scale (set defined at 25 °C).
Vapor pressure is log10 of mmHg; the set covers 15 to 30 °C, mostly 20 to 25 °C.
fu is the fraction unbound in human plasma, from 0 to 1.
Clint is human hepatic intrinsic clearance in µL/min per million cells; 0 means that no clearance was seen.
"–" marks a cell with nothing listed here.

- C[C@@H]1C[C@H]2[C@@H]3CCC4=CC(=O)CC[C@]4(C)[C@H]3CC[C@]2(C)[C@H]1C(=O)CO [21-Hydroxy-16 alpha-methyl-4-pregnene-3,20-dione]: MP 105 °C; logP 3.24; log S -3.838 (log10 mol/L); log vapor pressure -9.227 (log10 mmHg)
- O=C1c2ccccc2-c2ccccc21 [9-Fluorenone]: log S -3.797 (log10 mol/L); log vapor pressure -4.314 (log10 mmHg)
- Nc1nc(CC(=O)O)cs1 [2-Amino-4-thiazoleacetic acid]: logP -2.13; log S -2.09 (log10 mol/L)
- CCOC(=O)C(C)(C)Oc1ccc(Cl)cc1 [Clofibrate]: MP 20.35 °C; logP 3.3; log S -3.917 (log10 mol/L); log vapor pressure -2.595 (log10 mmHg); hepatic Clint 868 µL/min/10^6 cells
- O=S(=O)(O)CCN1CCN(CCS(=O)(=O)O)CC1 [1,4-Piperazinediethanesulfonic acid]: logP -2.7; log S -2.717 (log10 mol/L)
- O=S(=O)([O-])CCC(F)(F)C(F)(F)C(F)(F)C(F)(F)C(F)(F)C(F)(F)F.[K+] [6:2 Fluorotelomer sulfonate potassium salt]: MP 290.2 °C; log S -2.135 (log10 mol/L)
- Cc1ccc(C(C)(C)C)c(O)c1 [2-tert-butyl-5-methylphenol]: fraction unbound 0.0264; hepatic Clint 36 µL/min/10^6 cells
- Brc1cccc2c1-c1ccccc1C21c2ccccc2-c2ccccc21: MP 156.7 °C; log S -7.296 (log10 mol/L); log vapor pressure -8.223 (log10 mmHg)
- N#CCCN(CCC#N)c1ccc(N=Nc2ccc([N+](=O)[O-])cc2Cl)cc1: logP 2.074; log S -4.282 (log10 mol/L)
- Cc1nc2ccccn2c(=O)c1CCCl [3-(2-Chloroethyl)-2-methyl-4H-pyrido(1,2-a)pyrimidin-4-one]: MP 143.6 °C; logP 1.9; log S -2.471 (log10 mol/L); log vapor pressure -6.031 (log10 mmHg)
- CCOC(O)=NS(=O)(=O)c1ccc(C)cc1 [Ethyl hydrogen (4-methylbenzene-1-sulfonyl)carbonimidate]: MP 85 °C; bp 272 °C; logP 1.7; log S -2.243 (log10 mol/L); log vapor pressure -1.548 (log10 mmHg)
- CCc1cc2c(cc1CC)CC(NC[C@H](O)c1ccc(O)c3[nH]c(=O)ccc13)C2 [Indacaterol]: MP 195 °C; log S -4.692 (log10 mol/L)
- COC(=O)[C@H]1[C@H]2C[C@@H]3c4[nH]c5cc(OC)ccc5c4CCN3C[C@H]2C[C@@H](OC(=O)/C=C/c2cc(OC)c(OC)c(OC)c2)[C@@H]1OC [Rescinnamine]: logP 3.5; log S -5.26 (log10 mol/L)
- Nc1ccc2c(S(=O)(=O)O)cc(S(=O)(=O)O)cc2c1 [1,3-Naphthalenedisulfonic acid, 6-amino-]: logP -1.6; log S -0.122 (log10 mol/L)
- Clc1ccccc1-c1cccc2c1-c1ccccc1C2(c1ccccc1)c1ccccc1 [4-(2-Chlorophenyl)-9,9-diphenyl-9H-fluorene]: MP 213.4 °C; bp 480 °C; log S -7.553 (log10 mol/L)
- CCOC(=O)c1ccc(C#Cc2ccc3c(c2)C(C)(C)CCS3)nc1 [Tazarotene]: logP 5.6; log S -5.671 (log10 mol/L)
- O=Cc1cccc2c1OC(F)(F)O2 [2,2-Difluoro-2H-1,3-benzodioxole-4-carbaldehyde]: logP 2.2; log S -2.156 (log10 mol/L); log vapor pressure -0.534 (log10 mmHg)
- CCC(C)(C)c1cc(O)c(C(C)(C)CC)cc1O [2,5-bis(2-methylbutan-2-yl)benzene-1,4-diol]: fraction unbound 0.0166; hepatic Clint 11.4 µL/min/10^6 cells
- COC(=O)CCS [Methyl 3-mercaptopropionate]: logP 0.9; log vapor pressure 0.331 (log10 mmHg)
- CC1C2CC(CC2C2CCCC(O)C2)C1(C)C (centres undefined) [3-(5,5,6-Trimethylbicyclo[2.2.1]hept-2-yl)cyclohexanol]: MP -9.915 °C; logP 5.07; log S -4.602 (log10 mol/L)
- CC(C)CC1CCC(CCC=O)CC1 (centres undefined) [4-(2-Methylpropyl)cyclohexanepropanal]: bp 265 °C; log S -6.135 (log10 mol/L); log vapor pressure -1.727 (log10 mmHg)
- CCOC(=O)[C@@]12C[C@H]1C=CCCCCN(C)C(=O)[C@@H]1C[C@H](Oc3cc(-c4nc(C(C)C)cs4)nc4c(C)c(OC)ccc34)C[C@H]1C(=O)N2: MP 217.9 °C; log S -8.671 (log10 mol/L); log vapor pressure -9.837 (log10 mmHg)
- Cc1ccc(O)c(N=Nc2ccccc2[N+](=O)[O-])c1 [4-Methyl-2-[2-(2-nitrophenyl)diazenyl]phenol]: MP 117 °C; logP 4
- Cc1ccc(-c2[nH]c(C#N)nc2Cl)cc1 [4-Chloro-5-(4-methylphenyl)-1H-imidazole-2-carbonitrile]: MP 152.1 °C; logP 3; log S -4.259 (log10 mol/L)
- C=CC(C)(CCC=C(C)C)OC(=O)C(C)C (centres undefined) [Linalyl isobutyrate]: logP 5.5; log S -4.811 (log10 mol/L); log vapor pressure -1.46 (log10 mmHg)
- CCCCOC(=O)c1ccc(C(=O)OCCCC)c(C(=O)OCCCC)c1 [Tributyl benzene-1,2,4-tricarboxylate]: MP -54 °C; log S -4.807 (log10 mol/L)
- COC(=O)c1ccc2cc(C(=O)OC)ccc2c1 [Dimethyl 2,6-naphthalenedicarboxylate]: logP 3.5; log S -6.257 (log10 mol/L); log vapor pressure -5.606 (log10 mmHg)
- COC(=O)CCc1cc(C(C)(C)C)c(O)c(C(C)(C)C)c1 [Methyl 3,5-bis(tert-butyl)-4-hydroxyhydrocinnamate]: MP 65.75 °C; log vapor pressure -5.337 (log10 mmHg)
- COC(=O)N/N=C/c1c[n+]([O-])c2ccccc2[n+]1[O-] [Carbadox]: logP 0.13; log S -3.655 (log10 mol/L)
- O=C(Nc1cccc2c1C(=O)c1ccccc1C2=O)c1ccc(-c2ccc(N=Nc3ccc(-c4ccc(C(=O)Nc5cccc6c5C(=O)c5ccccc5C6=O)cc4)cc3)cc2)cc1 [C.I. Vat Yellow 33]: logP 1.7; log S -5.716 (log10 mol/L)

Excerpt, the final 2 entries:

| structure (SMILES) | name | MP (°C) | bp (°C) | logP | log S (log10 mol/L) | log vapor pressure (log10 mmHg) | fraction unbound | hepatic Clint (µL/min/10^6 cells) |
|---|---|---|---|---|---|---|---|---|
| COC(=O)N/N=C/c1c[n+]([O-])c2ccccc2[n+]1[O-] | Carbadox | – | – | 0.13 | -3.655 | – | – | – |
| O=C(Nc1cccc2c1C(=O)c1ccccc1C2=O)c1ccc(-c2ccc(N=Nc3ccc(-c4ccc(C(=O)Nc5cccc6c5C(=O)c5ccccc5C6=O)cc4)cc3)cc2)cc1 | C.I. Vat Yellow 33 | – | – | 1.7 | -5.716 | – | – | – |

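The OPERA project collected these measurements from public sources as training and test data for property models. One number stands for a compound and property, with no spread given. Method, purity and exact conditions of the single measurements are not given. A value may pool stereoisomers or salt forms, and the file does not say which form was measured. Some entries may be limits or estimates that an upstream database listed as plain numbers.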

From the experimental data distributed with OPERA 2.9.